Rows were chosen to be rich in hits. Some 2.8% of all compounds tested hit in one or more screens of this group.
miR-122 sensor: miR-122 Renilla sensor signal increase in Huh7, primary screen, miR-122 inhibitor project, cell-based, single point, plate reader; Huh7 miR-122 Renilla luciferase sensor, 48 h; neutral wells = 0, positive control = 100; 0.3% of 340,000 active; AID 602342, 2012; activation (reporter increase), % at 12.5 µM;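 active means mean replicate activation score at least 90 and every replicate individually at or above 90; inconclusive means only one of the two criteria met; inactive means neither criterion met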;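 further: higher luciferase means less miR-122 activity so hits act as miR-122 inhibitors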
UUG fidelity: modulators of yeast start codon fidelity, primary screen, whole organism, S. cerevisiae, single point, plate reader | AID 602363, 2012 | actives 0.13% (n = 350,000) | activity score, % at 18.7 µM | S. cerevisiae UUG-firefly luciferase reporter, luminescence/redox ratio;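 active means replicate mean at a twofold rise or more, about +100% in these data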;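 further: firefly luciferase made from a UUG start codon reports start codon fidelity; reporter light over untreated wells divided by growth signal over untreated wells; some hits fall short of that in this replicate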
Wnt act: Wnt/beta-catenin pathway activators, primary screen, cell-based, plate reader, single point; 1.2% of 300,000 active; Wnt/beta-catenin reporter cell assay, activator; activation, % at 9.35 µM; in the data active means activation above about 30%, passing the limit was not always enough; inconclusive means no clear call, values can overlap the other calls;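 further: 0% = neutral control wells and 100% = positive control wells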
PglD inh: C. jejuni PglD acetyltransferase inhibitors, primary screen, biochemical, DTNB colorimetric, single point; AID 602405, 2012; 0.098% of 360,000 active; purified PglD enzyme, DTNB colorimetric CoA detection; UDP-N-acetylbacillosamine N-acetyltransferase PglD (Campylobacter jejuni); inhibition, % at 12.5 µM; in the data active means inhibition above about 16%, passing the limit was not always enough; inconclusive means no clear call, values can overlap the other calls
MITF act: activators of MITF-driven TRPM1 promoter reporter, primary screen, cell-based, SK-MEL-5, luciferase, single point; SK-MEL-5 TRPM1-promoter luciferase, 24 h; % of positive control, neutral wells = 0; activation, % at 12.5 µM; 0.75% of 300,000 active;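 active means mean activation of at least 80% with every replicate also reaching 80%; inconclusive means mean reaches 80% but some replicate falls short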;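 further: 0% = neutral control wells and 100% = parthenolide positive control wells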
esBAF inh: Bmi1 luciferase reporter increase in mESCs, primary screen, esBAF inhibitor project, mouse ES cells, Bmi1 luciferase knock-in, single point | 24 h; 100% = twice the neutral-well signal | reporter increase, % at 12.5 µM | 2% of 350,000 active | AID 602393, 2012; in the data active means activation above about 40%; inconclusive means no clear call, values can overlap the other calls;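 further: 0% = median of the plate's neutral control wells and 100% = double that signal; a rise in the Bmi1 reporter signal indicates esBAF inhibition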
Active calls of the source: *; ? = inconclusive; · = not tested or not shown; [ ] = remark or other dose.

SMILES	miR-122 sensor	UUG fidelity	Wnt act	PglD inh	MITF act	esBAF inh
COC(=O)c1ccc(NC(=O)CSc2nccn2CCc2ccccc2)cc1	4	-25	9	5	66	46*
COc1ccc(NC(=O)CSc2nccn2Cc2ccco2)cc1	0	-26	36*	-2	57	36
Cn1ccnc1SCC(=O)Nc1ccc(SC(F)F)cc1	-8	-19	28	-4	109*	82*
CCOc1ccc(NC(=O)CSc2nccn2Cc2ccco2)cc1	8	7	10	-3	49	21
Cn1ccnc1SCC(=O)Nc1ccccc1	-2	-11	·	-4	8	0
COc1ccc(-c2ccc3c(c2)[C@H]2[C@H](CCN2C(=O)Cc2cccnc2)[C@H](CO)N3C)cc1	-14[16.7 µM]	6	·	1	·	2
Cc1cc(C(=O)Nc2nc3ccc(Cl)cc3s2)nn1C	-5	-7	60*	7	·	·
O=C(Nc1nc2ccc(Cl)cc2s1)c1ccc(Br)o1	1	-32	10	-4	59	62*
O=C(Nc1nc2c(Cl)cccc2s1)c1ccc(Br)o1	3	-10	·	1	1	39
CC(=O)Nc1ccc(/C=C/c2nc3ccccc3[nH]c2=O)cc1	-17	-18	8	3	42	20
O=C(/C(=C/c1ccc(Cl)cc1)c1nc2ccccc2[nH]1)c1ccccc1	26	-16	84*	-1	-86	-69
COc1cc(/C=C(/C(=O)c2cccs2)c2nc3ccccc3[nH]2)cc(OC)c1O	14	-5	·	1	·	101*
O=C(N/C(=C/c1ccc(Cl)cc1)c1nc2ccccc2[nH]1)c1ccco1	67	-10	4	1	7	·
O=c1[nH]c2ccccc2nc1/C=C/c1ccc(Cl)cc1	-3	0	15	-3	66	45*
Cn1c(/C=C/c2ccc(Cl)cc2)nc2ccccc2c1=O	-6	-13	1	-2	·	69*
CO[C@H]1CN(C)C(=O)c2ccc(NS(C)(=O)=O)cc2OC[C@H](C)N(C(=O)C2CCOCC2)C[C@@H]1C	2[16.7 µM]	-7	·	3	·	-1
C[C@H](CO)N1C[C@H](C)[C@@H](CN(C)S(=O)(=O)c2ccc(Cl)cc2)Oc2c(NS(=O)(=O)c3ccccc3)cccc2C1=O	-2[16.7 µM]	-13	·	3	·	1
Cc1cc(C)n(CC(=O)NC2CCCc3c2cnn3-c2ccc(C)c(C)c2)n1 (centres undefined)	-3	19	9	3	29	59*
Cc1ccc(-c2nn(-c3ccccc3)cc2C(N)=O)o1	·	·	0	·	3	·
OCc1cn(-c2ccccc2)nc1-c1ccco1	-1	-17	·	-4	39	42*
Cc1ccc(-c2nn(-c3ccccc3)cc2CO)o1	-2	-22	·	-7	40	46*
Cc1ccc(-c2nn(-c3ccccc3)cc2C=O)o1	0	-17	46*	4	22	?
O=Cc1cn(-c2ccccc2)nc1-c1ccccc1	-8	-14	16	2	47	39
C[C@@H]1CN([C@H](C)CO)C(=O)c2cc(NS(=O)(=O)c3ccccc3)ccc2O[C@@H](C)CCCCO[C@H]1CN(C)Cc1ccc(C(F)(F)F)cc1	-9[16.7 µM]	4	·	-10	·	1
O=C([C@H]1[C@H](CO)[C@H]2Cn3c(ccc(C4=CCCC4)c3=O)[C@H]2N1Cc1nccs1)N1CCCCC1	-2[16.7 µM]	-5	·	0	·	-5
CC1(C)CC(=O)c2c(O)cc(OCc3ccc(Br)cc3)cc2O1	4	-6	-1	-5	87*	67*
COC(=O)c1ccc2c(c1)C(=O)/C(=C/c1ccc(C)cc1)O2	1	0	5	-1	64	67*
COc1ccc(C)cc1NS(=O)(=O)c1ccc2c(c1)CCN2C(C)=O	92*	9	-3	-11	-9	0
CC(=O)N1CCCc2cc(S(=O)(=O)Nc3ccccc3C)ccc21	35	-13	-2	-4	-4	-5
O=C1CC(c2ccccc2)=Nc2ccccc2N1	·	-8	2	-1	12	12

By substructure, the entries above containing an aryl thioether with sulfur outside any ring.
SMILES	miR-122 sensor	UUG fidelity	Wnt act	PglD inh	MITF act	esBAF inh
COC(=O)c1ccc(NC(=O)CSc2nccn2CCc2ccccc2)cc1	4	-25	9	5	66	46*
COc1ccc(NC(=O)CSc2nccn2Cc2ccco2)cc1	0	-26	36*	-2	57	36
Cn1ccnc1SCC(=O)Nc1ccc(SC(F)F)cc1	-8	-19	28	-4	109*	82*
CCOc1ccc(NC(=O)CSc2nccn2Cc2ccco2)cc1	8	7	10	-3	49	21
Cn1ccnc1SCC(=O)Nc1ccccc1	-2	-11	·	-4	8	0

Following part:
SMILES	miR-122 sensor	UUG fidelity	Wnt act	PglD inh	MITF act	esBAF inh
O=C1CC(/C=C/c2ccncc2)=Nc2ccccc2N1	20	-8	0	1	-4	88*
CCCCCCOc1ccc(OCC(O)CN2C(=O)NC(C)(C)C2=O)cc1 (centres undefined)	·	-13	7	3	51	46*
Cc1ccc(OCC(O)CN2C(=O)NC(C)(C)C2=O)cc1 (centres undefined)	-5	-9	·	-5	-4	-1
C[C@H](CO)N1C[C@H](C)[C@H](CN(C)C(=O)Nc2ccc(C(F)(F)F)cc2)Oc2c(NS(=O)(=O)c3ccccc3)cccc2C1=O	11[16.7 µM]	-17	·	-2	·	4
Cc1cccc(Cn2cc(SCC(=O)Nc3nccs3)c3ccccc32)c1	0	-8	41*	5	68	65*
Cc1ccc(Cn2cc(SCC(=O)Nc3nccs3)c3ccccc32)cc1	·	-7	13	-4	·	38
Cc1ccc(CNC(=O)C2(S(=O)(=O)c3ccccc3)CC=CC2)cc1	-5	-10	·	-4	74	73*
Cc1ccc(CNC(=O)C2(S(=O)(=O)c3ccc(C)cc3)CC2)cc1	0	-7	1	1	-1	6
C[C@H](CO)N1C[C@H](C)[C@H](CN(C)C(=O)Nc2ccc(F)cc2)Oc2c(NC(=O)NC3CCCCC3)cccc2C1=O	8[16.7 µM]	-9	·	-1	·	5
S=C(NCCc1cccc(Cl)c1)NC1CCCCC1	49	-36	22	-1	46	66*
C[C@@H]1CN([C@@H](C)CO)C(=O)c2cc(C3=CCCCC3)cnc2O[C@@H]1CN(C)Cc1ccccc1	1[16.7 µM]	-4	·	-1	·	2
CC1(C)CC(=O)c2sc(NC(=O)c3ccco3)nc2C1	4	-15	5	·	·	24
CC(=O)c1sc(Nc2nc3cc4c(cc3s2)OCO4)nc1C	·	·	?	·	3	·
CC(=O)c1sc(NC(=O)C2COc3ccccc3O2)nc1C (centres undefined)	·	-69	36*	-2	·	-51
O=C(Nc1nncs1)C1COc2ccccc2O1 (centres undefined)	5	-6	·	0	2	·
CC(C)(C)c1csc(NC(=O)C2COc3ccccc3O2)n1 (centres undefined)	·	-2	0	-4	66	55*
CC(=O)c1sc(Nc2ccc3c(c2)OCO3)nc1C	-2	-8	?	-1	·	47*
CC1(C)CC(=O)c2sc(NC(=O)C3COc4ccccc4O3)nc2C1 (centres undefined)	0	-11	6	-1	32	45*

High-throughput results from PubChem BioAssay.
